Assay results as given in US6765010B2, “Compositions and methods for enhancing analgesic potency of tramadol and attenuating its adverse side effects” (Pain Therapeutics, Inc., priority 1999, dated 2004).

Test system: excitatory opioid receptors on DRG neurons
Experiment: Blockade of opioid-induced excitatory APD prolongation in DRG neurons
Format: cell-based, mouse

## CO[C@]12CC[C@@]3(C[C@@H]1C(C)(C)O)[C@H]1Cc4ccc(O)c5c4[C@@]3(CCN1CC1CC1)[C@H]2O5
Higher (nM) concentration
  effect on morphine's APD effects: blocks both inhibitory as well as excitatory effects of morphine
Pretreatment at low (fM-pM) concentrations
  blockade of excitatory APD prolongation by bimodally-acting opioid agonists: remarkably effective in blocking excitatory APD-prolonging effects
